ChEMBL document CHEMBL1132669, “New generation dopaminergic agents. 7. Heterocyclic bioisosteres that exploit the 3-OH-phenoxyethylamine D2 template” (Bioorg Med Chem Lett, 1999)

Amino acid sequences for entries named in this document (tags omitted).
UniProt P14416, whole entry: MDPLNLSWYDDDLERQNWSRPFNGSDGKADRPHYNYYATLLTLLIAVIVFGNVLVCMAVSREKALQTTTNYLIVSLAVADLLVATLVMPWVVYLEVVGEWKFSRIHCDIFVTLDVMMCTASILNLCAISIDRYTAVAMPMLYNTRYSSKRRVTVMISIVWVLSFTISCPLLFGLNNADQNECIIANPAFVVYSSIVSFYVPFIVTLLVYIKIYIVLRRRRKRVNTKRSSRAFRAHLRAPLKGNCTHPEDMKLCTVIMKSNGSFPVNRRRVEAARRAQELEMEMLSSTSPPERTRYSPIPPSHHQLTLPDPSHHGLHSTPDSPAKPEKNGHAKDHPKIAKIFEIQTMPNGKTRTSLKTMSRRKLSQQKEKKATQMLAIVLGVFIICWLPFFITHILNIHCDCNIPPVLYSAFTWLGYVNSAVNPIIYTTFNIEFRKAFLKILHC
UniProt P35462, whole entry: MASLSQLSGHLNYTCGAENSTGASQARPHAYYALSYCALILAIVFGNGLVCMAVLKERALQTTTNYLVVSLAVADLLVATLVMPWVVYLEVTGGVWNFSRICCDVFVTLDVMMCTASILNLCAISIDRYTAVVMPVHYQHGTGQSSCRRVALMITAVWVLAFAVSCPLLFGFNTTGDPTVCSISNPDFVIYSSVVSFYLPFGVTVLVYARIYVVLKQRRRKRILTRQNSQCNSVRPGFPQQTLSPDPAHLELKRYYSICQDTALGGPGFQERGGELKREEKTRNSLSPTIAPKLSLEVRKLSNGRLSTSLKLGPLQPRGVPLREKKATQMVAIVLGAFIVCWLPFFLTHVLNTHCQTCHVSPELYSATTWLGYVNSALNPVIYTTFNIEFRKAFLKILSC
UniProt P61169, whole entry: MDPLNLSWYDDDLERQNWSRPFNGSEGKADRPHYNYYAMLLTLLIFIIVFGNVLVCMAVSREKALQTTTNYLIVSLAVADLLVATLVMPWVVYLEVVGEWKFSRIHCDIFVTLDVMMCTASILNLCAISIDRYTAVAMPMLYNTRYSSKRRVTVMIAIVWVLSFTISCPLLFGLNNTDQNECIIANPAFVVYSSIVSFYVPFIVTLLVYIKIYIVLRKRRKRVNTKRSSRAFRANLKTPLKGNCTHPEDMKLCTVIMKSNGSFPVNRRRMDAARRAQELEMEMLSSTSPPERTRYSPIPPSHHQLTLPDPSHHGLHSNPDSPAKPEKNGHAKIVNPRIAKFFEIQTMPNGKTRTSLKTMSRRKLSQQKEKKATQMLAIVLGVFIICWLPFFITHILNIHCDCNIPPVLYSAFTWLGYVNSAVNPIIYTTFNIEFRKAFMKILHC

Columns and labels:
D(2) dopamine receptor = D(2) dopamine receptor (Homo sapiens, UniProt P14416); experiment: Inhibition of [3H]spiperone binding to human Dopamine receptor D2 in CHO cell membranes
D(3) dopamine receptor = D(3) dopamine receptor (Homo sapiens, UniProt P35462); experiment: Inhibition of [3H]spiperone binding to human Dopamine receptor D3 in CHO cell membranes
[1] = molecular target: D(2) dopamine receptor (Rattus norvegicus) (UniProt P61169); experiment: Relative binding affinity for low and hugh affinity type dopamine D2 receptors in rat striatal membranes; assay type: cell membranes; details: Striatum, Membrane

Row | Ki (D(2) dopamine receptor) [nM] | Ki (D(3) dopamine receptor) [nM] | Ratio [1] | SMILES
1 | 3.9 | 4.1 | – | O=c1[nH]c2cccc(OCCNCc3ccccc3)c2[nH]1
2 | – | – | 18 | Oc1nc2c(OCCNCc3ccccc3)cccc2[nH]1
